The values that follow are results of earlier work, collected in publication PMC7923178, “Binding of Amyloid β(1–42)-Calmodulin Complexes to Plasma Membrane Lipid Rafts in Cerebellar Granule Neurons Alters Resting Cytosolic Calcium Homeostasis” (International Journal of Molecular Sciences, 2021).

Sequences of proteins named here, by UniProt entry; tags and fusion partners are left off. Residues count along the entry.
UniProt P49840, 2-483: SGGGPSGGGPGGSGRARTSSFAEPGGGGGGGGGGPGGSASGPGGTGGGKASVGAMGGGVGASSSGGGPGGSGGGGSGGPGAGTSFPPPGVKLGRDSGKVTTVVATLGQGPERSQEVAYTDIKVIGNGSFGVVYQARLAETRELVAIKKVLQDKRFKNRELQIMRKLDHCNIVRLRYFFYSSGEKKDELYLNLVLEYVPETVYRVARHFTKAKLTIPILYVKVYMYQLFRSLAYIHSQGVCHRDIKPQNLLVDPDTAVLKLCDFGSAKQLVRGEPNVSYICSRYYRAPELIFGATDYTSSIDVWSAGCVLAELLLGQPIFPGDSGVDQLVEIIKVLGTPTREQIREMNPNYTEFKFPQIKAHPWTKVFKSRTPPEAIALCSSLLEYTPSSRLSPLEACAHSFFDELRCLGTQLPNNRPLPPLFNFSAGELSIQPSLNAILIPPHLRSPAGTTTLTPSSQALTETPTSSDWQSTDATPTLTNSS

The series deals with GSK3alpha (UniProt P49840).

The term Kd denotes the concentration at which binding is half-saturated. Regarding amyloid beta (from UniProt P05067), the Kd is 1 nM.
